Reference: ChEMBL document CHEMBL4825708, “GDC-9545 (Giredestrant): A Potent and Orally Bioavailable Selective Estrogen Receptor Antagonist and Degrader with an Exceptional Preclinical Profile for ER+ Breast Cancer” (J Med Chem, 2021)

By UniProt entry, the sequences of proteins in these tests, tags left out.
UniProt P03372, whole entry: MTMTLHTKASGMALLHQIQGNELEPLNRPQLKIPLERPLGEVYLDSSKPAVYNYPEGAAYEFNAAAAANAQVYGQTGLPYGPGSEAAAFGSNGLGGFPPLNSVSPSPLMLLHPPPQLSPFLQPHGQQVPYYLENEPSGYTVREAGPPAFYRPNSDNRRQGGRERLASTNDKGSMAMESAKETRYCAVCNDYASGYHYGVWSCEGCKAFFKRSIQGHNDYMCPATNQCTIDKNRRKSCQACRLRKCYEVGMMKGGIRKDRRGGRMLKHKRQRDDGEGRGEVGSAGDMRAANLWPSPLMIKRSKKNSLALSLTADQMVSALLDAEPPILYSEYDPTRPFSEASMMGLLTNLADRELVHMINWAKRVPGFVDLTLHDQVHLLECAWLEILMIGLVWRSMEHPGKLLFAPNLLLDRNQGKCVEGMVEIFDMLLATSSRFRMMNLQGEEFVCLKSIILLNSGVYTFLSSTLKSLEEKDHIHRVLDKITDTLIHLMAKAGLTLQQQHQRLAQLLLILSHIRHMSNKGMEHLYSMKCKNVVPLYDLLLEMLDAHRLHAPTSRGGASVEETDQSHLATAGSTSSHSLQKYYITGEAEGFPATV

Legend:
[1] = molecular target: T1, Estrogen receptor (Homo sapiens, UniProt P03372); conditions: MCF7, dose 1.0 nM, time 0.5-24 hrs
[2] = molecular target: T1, Estrogen receptor; conditions: MCF7, dose 0.0002-100 nM, time 4.0 hrs

T1/2 [1] [h] | Emax [2] [%] | Compound
1.8 | 101 | C[C@@H]1Cc2c([nH]c3ccccc23)[C@@H](c2c(F)cc(NC3CN(CCCF)C3)cc2F)N1CC(F)(F)CO [GIREDESTRANT]
– | 95 | C[C@@H]1Cc2c([nH]c3ccccc23)[C@@H](c2c(F)cc(OCCN3CC(CF)C3)cc2F)N1CC(C)(C)F
– | 80 | C[C@@H]1Cc2c([nH]c3ccccc23)[C@@H](c2c(F)cc(OC3CN(CCCO)C3)cc2F)N1CC(F)(F)CO
– | 103 | C[C@@H]1Cc2c([nH]c3cccc(F)c23)[C@@H](c2c(F)cc(NC3CN(CCCF)C3)cc2F)N1CC(F)(F)CO
– | 100 | C[C@@H]1Cc2c([nH]c3ccccc23)[C@@H](c2c(F)cc(OC3CN(CCCF)C3)cc2F)N1CC(C)(C)F
– | 100 | C[C@@H]1Cc2c([nH]c3ccccc23)[C@@H](c2c(F)cc(NC3CN(CCC(F)F)C3)cc2F)N1CC(F)(F)CO
– | 99 | C[C@@H]1Cc2c([nH]c3ccccc23)[C@@H](c2c(F)cc(O[C@H]3CCN(CCCF)C3)cc2F)N1CC(F)(F)CO
– | 99 | C[C@@H]1Cc2c([nH]c3ccccc23)[C@@H](c2c(F)cc(N[C@H]3CCN(CCCF)C3)cc2F)N1CC(F)(F)CO

Compound | T1/2 [1] [h] | Emax [2] [%]
C[C@@H]1Cc2c([nH]c3ccc(F)cc23)[C@@H](c2c(F)cc(NC3CN(CCCF)C3)cc2F)N1CC(F)(F)CO | – | 101
